The numbers were not newly measured in patent publication US8053470B2, “Process for the preparation of polynuclear ferric hydroxide-saccaride complexes” (Chongqing Pharmaceutical Research Institute Co., Ltd., priority 2005, dated 2011), which cites them from elsewhere.

This data set concerns patients. The settings on record: cited from earlier work.

As for iron dextran, for the setting “1991-1999”, the “patients died of allergic responses” value is recorded as “more than 30 patients”. The dosage-independent allergic response (human, in vivo) was 0.7%-1%.
